Blank lines part the entries; values can stand above or below the compound they belong to.
Experiments:
Assay in all cases: biochemical
[1] = target: Phosphatidylinositol 4,5-bisphosphate 3-kinase catalytic subunit alpha isoform (Homo sapiens, UniProt P42336)
[2] = target: Phosphatidylinositol 4,5-bisphosphate 3-kinase catalytic subunit beta isoform (Homo sapiens, UniProt P42338)
[3] = target: Phosphatidylinositol 4,5-bisphosphate 3-kinase catalytic subunit gamma isoform (Homo sapiens, UniProt P48736)
[4] = target: T1, Phosphatidylinositol 4,5-bisphosphate 3-kinase catalytic subunit delta isoform (Homo sapiens, UniProt O00329)
T1 sequence (O00329 whole entry): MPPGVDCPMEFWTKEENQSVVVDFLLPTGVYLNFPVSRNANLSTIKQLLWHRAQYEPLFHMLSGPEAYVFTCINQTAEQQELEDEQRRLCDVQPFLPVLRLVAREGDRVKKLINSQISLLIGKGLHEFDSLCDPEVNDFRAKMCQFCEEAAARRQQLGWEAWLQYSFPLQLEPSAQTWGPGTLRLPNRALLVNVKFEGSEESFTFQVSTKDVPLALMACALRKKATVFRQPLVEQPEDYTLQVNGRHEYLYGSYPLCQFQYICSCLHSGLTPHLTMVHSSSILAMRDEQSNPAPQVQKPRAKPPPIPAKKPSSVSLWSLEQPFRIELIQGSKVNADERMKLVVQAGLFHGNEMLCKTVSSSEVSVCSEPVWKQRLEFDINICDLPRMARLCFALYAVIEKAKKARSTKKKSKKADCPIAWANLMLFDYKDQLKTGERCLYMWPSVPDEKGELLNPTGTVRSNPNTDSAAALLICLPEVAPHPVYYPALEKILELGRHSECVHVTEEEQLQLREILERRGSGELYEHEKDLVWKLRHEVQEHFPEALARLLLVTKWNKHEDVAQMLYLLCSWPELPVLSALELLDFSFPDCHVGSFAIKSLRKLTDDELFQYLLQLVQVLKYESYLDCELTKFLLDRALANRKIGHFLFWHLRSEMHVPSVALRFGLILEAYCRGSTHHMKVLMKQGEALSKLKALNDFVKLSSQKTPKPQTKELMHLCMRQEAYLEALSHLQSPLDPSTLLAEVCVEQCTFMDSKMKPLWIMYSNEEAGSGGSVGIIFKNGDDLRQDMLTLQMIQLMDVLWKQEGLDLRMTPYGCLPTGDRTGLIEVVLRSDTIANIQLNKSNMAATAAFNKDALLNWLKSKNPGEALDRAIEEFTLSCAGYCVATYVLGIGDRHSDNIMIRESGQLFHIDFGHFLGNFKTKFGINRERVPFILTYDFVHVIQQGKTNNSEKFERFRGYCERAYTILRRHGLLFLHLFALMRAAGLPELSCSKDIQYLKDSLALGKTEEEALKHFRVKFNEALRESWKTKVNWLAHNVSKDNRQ

Amino acid sequences for entries named in this document (tags omitted). A change or cut given only in a name is not applied to a line headed by its entry.
UniProt P42336, whole entry: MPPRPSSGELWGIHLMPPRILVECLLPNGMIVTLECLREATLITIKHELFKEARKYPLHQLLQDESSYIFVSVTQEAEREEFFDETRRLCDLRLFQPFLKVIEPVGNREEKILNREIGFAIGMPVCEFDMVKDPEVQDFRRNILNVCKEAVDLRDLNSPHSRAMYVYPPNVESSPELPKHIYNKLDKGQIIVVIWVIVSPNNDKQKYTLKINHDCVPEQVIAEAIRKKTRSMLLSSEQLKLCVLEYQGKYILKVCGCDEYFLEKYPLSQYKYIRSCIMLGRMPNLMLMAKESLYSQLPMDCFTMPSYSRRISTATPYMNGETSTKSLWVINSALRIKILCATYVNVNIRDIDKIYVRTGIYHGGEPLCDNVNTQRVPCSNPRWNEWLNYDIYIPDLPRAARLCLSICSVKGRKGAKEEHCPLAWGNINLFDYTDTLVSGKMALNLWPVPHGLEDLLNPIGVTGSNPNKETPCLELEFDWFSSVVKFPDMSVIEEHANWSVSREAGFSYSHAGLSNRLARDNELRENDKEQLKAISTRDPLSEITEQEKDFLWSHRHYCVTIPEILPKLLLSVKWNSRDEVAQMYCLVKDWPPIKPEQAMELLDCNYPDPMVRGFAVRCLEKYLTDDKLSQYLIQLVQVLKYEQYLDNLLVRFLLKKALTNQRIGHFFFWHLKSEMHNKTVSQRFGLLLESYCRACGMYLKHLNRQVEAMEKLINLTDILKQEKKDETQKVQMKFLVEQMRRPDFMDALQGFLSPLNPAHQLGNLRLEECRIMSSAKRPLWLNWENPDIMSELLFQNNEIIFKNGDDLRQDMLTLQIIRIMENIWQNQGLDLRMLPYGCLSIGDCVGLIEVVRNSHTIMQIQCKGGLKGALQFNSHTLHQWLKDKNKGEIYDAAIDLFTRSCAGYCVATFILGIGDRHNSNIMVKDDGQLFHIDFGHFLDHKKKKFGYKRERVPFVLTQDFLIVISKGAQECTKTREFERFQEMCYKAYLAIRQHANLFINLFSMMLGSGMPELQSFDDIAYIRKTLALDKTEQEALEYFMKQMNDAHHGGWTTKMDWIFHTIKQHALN
UniProt P42338: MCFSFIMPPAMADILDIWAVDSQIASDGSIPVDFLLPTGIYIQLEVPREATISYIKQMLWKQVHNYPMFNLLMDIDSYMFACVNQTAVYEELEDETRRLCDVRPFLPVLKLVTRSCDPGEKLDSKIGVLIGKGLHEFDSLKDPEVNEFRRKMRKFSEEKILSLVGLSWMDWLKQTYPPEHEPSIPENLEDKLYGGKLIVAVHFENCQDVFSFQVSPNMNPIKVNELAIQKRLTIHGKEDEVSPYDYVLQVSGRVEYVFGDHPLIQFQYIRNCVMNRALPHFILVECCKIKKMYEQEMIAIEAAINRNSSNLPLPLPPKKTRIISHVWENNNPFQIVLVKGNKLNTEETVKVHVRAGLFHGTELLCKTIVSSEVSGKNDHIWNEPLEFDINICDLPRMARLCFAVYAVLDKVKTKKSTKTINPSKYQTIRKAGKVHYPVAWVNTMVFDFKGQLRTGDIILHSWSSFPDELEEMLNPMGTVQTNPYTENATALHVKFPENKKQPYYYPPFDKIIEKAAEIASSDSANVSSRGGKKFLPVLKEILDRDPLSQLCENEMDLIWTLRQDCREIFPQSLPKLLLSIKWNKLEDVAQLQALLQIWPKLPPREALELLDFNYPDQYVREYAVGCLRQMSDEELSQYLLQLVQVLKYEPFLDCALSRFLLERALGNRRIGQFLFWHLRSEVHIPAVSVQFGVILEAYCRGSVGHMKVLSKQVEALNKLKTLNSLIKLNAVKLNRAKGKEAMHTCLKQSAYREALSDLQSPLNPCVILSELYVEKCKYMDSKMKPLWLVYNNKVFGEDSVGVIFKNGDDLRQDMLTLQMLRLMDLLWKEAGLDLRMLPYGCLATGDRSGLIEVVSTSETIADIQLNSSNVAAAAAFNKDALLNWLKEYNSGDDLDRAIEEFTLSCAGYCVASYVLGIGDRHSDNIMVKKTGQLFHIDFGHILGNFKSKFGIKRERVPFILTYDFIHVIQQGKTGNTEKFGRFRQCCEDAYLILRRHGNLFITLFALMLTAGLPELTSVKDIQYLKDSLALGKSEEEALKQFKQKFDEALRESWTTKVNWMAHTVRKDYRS
UniProt P48736: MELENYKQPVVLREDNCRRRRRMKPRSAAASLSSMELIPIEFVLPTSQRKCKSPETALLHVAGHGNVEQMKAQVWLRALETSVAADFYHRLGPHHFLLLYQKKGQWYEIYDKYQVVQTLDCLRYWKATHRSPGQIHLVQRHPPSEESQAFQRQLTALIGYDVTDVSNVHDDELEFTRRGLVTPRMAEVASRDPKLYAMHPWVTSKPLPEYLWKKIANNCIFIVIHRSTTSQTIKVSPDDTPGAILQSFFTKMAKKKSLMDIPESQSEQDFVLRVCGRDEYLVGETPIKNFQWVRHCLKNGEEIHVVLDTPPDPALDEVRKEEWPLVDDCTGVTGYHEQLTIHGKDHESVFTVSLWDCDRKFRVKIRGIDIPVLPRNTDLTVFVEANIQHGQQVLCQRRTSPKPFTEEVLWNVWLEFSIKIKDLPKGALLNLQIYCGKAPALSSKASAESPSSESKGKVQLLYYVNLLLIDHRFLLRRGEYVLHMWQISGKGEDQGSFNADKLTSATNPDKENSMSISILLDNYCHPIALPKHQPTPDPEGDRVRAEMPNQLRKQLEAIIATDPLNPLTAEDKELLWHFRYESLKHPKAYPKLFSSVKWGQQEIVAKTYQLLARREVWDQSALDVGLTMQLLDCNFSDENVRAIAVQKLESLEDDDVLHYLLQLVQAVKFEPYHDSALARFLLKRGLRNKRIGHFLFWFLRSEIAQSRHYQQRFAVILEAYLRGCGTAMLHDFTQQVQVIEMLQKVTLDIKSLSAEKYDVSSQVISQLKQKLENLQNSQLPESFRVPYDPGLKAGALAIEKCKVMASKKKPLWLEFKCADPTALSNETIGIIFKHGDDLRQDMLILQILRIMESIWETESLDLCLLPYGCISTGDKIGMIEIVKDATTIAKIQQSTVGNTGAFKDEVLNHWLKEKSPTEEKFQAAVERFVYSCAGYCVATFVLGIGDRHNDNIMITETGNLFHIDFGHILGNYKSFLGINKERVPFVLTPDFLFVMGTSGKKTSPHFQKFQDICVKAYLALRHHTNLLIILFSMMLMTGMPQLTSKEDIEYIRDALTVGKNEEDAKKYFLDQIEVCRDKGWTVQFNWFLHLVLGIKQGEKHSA

Ki [1]: 3 nM
Ki [2]: 2 nM
Compound: COc1ccc(Nc2ncc(Cc3ccc(S(C)(=O)=O)cc3)cc2-c2nc(C)nc(N)n2)cn1

Ki [3]: 8 nM
Compound: COc1ccc(Nc2ncc(-c3ccc(C)nc3)cc2-c2nc(C)nc(N)n2)cn1

Ki [2]: 28 nM
Compound: Cc1nc(-c2cccnc2Nc2cccc3[nH]ncc23)c2nc[nH]c2n1

Compound: COc1ccc(Nc2ncccc2-c2nc(C)nc3nc[nH]c23)cn1
Ki [4]: 70 nM
